Tests used:
[1] = target: Sodium-dependent serotonin transporter, SLC6A4 (h) (Homo sapiens, UniProt P31645)
[2] = target: Muscarinic acetylcholine receptor M2, CHRM2 (h) (Homo sapiens, UniProt P08172)
[3] = target: Muscarinic acetylcholine receptor M3, CHRM3 (h) (Homo sapiens, UniProt P20309)

Sequences of proteins named here, by UniProt entry; tags and fusion partners are left off.
UniProt P31645, whole entry: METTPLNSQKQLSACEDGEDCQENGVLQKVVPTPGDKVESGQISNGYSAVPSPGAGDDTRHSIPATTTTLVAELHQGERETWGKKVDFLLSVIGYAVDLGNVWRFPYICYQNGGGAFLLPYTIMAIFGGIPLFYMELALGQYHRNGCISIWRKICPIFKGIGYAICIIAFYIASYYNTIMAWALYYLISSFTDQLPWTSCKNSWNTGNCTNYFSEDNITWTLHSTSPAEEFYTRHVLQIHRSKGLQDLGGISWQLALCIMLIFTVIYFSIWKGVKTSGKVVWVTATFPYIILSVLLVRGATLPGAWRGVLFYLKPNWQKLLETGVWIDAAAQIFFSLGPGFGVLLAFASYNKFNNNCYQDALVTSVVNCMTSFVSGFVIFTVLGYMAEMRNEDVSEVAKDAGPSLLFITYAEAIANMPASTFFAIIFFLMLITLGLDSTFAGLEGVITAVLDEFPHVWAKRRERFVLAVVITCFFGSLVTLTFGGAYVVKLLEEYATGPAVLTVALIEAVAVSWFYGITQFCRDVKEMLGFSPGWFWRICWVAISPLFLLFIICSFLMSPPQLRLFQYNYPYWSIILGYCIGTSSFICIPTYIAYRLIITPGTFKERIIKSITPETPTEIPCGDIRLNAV
UniProt P08172, whole entry: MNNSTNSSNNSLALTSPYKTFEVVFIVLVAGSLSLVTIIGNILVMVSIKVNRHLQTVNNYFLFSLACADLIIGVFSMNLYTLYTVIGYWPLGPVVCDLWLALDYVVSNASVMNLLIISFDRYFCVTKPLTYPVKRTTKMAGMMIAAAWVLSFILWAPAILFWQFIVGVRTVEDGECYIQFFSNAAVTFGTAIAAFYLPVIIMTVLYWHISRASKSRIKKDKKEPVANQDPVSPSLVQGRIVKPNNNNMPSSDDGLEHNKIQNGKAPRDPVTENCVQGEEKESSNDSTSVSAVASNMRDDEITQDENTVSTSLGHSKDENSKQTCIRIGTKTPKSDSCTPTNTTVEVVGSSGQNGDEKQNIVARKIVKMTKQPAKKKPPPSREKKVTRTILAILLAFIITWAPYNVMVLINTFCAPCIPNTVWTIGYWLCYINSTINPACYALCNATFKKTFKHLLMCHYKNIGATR
UniProt P20309, whole entry: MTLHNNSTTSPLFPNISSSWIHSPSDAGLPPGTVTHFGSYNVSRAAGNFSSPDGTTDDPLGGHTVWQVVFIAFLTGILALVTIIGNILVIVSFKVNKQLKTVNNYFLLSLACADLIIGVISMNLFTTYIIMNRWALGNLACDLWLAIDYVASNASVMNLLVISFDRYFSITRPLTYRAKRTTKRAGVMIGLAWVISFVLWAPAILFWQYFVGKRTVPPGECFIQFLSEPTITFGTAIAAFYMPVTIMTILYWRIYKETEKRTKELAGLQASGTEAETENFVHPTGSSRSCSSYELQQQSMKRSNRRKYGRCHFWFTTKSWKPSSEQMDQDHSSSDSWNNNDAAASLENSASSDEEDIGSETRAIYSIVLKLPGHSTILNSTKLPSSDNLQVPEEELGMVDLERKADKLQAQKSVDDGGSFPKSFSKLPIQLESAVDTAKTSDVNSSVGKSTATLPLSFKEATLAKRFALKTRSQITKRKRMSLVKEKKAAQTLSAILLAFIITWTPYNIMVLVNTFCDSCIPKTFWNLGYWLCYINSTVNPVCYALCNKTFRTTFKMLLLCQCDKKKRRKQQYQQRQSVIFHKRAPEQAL

(4S,4aR,5S,5aR,6S,12aS)-4-(Dimethylamino)-3,5,6,10,12,12a-hexahydroxy-6-methyl-1,11-dioxo-1,4,4a,5,5a,6,11,12a-octahydrotetracene-2-carboxamide--hydrogen chloride (1/1) [Oxytetracycline hydrochloride]
Specific binding [1]: -0.5%
Specific binding [2]: -10.6%
IPP screening %, Specific binding [3]: -6.6%

Source: publication PMC11879040 (2024)
